Membrane permeability of cyclic peptides

Values of Kelly et al. 2021, doi:10.1021/jacs.0c06115, as listed in CycPeptMPDB.

PAMPA measures passive passage through an artificial lipid membrane. MDCK: transport across canine kidney epithelial cells. Permeability is given as log10 of P in cm/s; higher (less negative) is more permeable. Cells with "–" have no entry in this list.

compound	PAMPA (log10 cm/s)	MDCK (log10 cm/s)
CC(=O)N1CCC[C@H]1C(=O)N(C)[C@H](CC(C)C)C(=O)N[C@@H]1C(=O)N(C)[C@H](CC(C)C)C(=O)N[C@H](CC(C)C)C(=O)N[C@H](CC(C)C)C(=O)N(C)[C@H](C)C(=O)N[C@H](CC(C)C)C(=O)N2CCC[C@@H]2C(=O)O[C@@H]1C	-6.45	–
CC(=O)N1CCC[C@H]1C(=O)N(C)[C@@H](CC(C)C)C(=O)N[C@@H]1C(=O)N[C@H](CC(C)C)C(=O)N(C)[C@@H](CC(C)C)C(=O)N(C)[C@@H](CC(C)C)C(=O)N[C@@H](C)C(=O)N[C@@H](CC(C)C)C(=O)N2CCC[C@H]2C(=O)O[C@@H]1C	-5.67	–
CC(=O)N1CCC[C@@H]1C(=O)N(C)[C@@H](CC(C)C)C(=O)N[C@@H]1C(=O)N[C@@H](CC(C)C)C(=O)N[C@@H](CC(C)C)C(=O)N[C@H](CC(C)C)C(=O)N(C)[C@H](C)C(=O)N[C@H](CC(C)C)C(=O)N2CCC[C@@H]2C(=O)O[C@@H]1C	-6.42	–
CC(=O)N1CCC[C@@H]1C(=O)N(C)[C@H](CC(C)C)C(=O)N[C@@H]1C(=O)N[C@H](CC(C)C)C(=O)N[C@H](CC(C)C)C(=O)N[C@@H](CC(C)C)C(=O)N(C)[C@@H](C)C(=O)N[C@H](CC(C)C)C(=O)N2CCC[C@H]2C(=O)O[C@@H]1C	-5.92	–
CC(=O)N1CCC[C@@H]1C(=O)N(C)[C@@H](CC(C)C)C(=O)N[C@@H]1C(=O)N[C@@H](CC(C)C)C(=O)N[C@H](CC(C)C)C(=O)N[C@@H](CC(C)C)C(=O)N[C@@H](C)C(=O)N[C@@H](CC(C)C)C(=O)N2CCC[C@@H]2C(=O)O[C@@H]1C	-6.50	–
CC(=O)N1CCC[C@@H]1C(=O)N(C)[C@H](CC(C)C)C(=O)N[C@@H]1C(=O)N(C)[C@H](CC(C)C)C(=O)N[C@H](CC(C)C)C(=O)N[C@H](CC(C)C)C(=O)N[C@H](C)C(=O)N[C@H](CC(C)C)C(=O)N2CCC[C@@H]2C(=O)O[C@@H]1C	-7.34	–
CC(=O)N1CCC[C@H]1C(=O)N[C@@H]1C(=O)N[C@H](CC(C)C)C(=O)N[C@H](CC(C)C)C(=O)N[C@H](CC(C)C)C(=O)N[C@@H](CC(C)C)C(=O)N(C)[C@H](C)C(=O)N[C@@H](CC(C)C)C(=O)N2CCC[C@@H]2C(=O)O[C@@H]1C	-6.22	–
CC(=O)N[C@@H]1C(=O)N2CCC[C@H]2C(=O)N(C)[C@H](CC(C)C)C(=O)N[C@H](CC(C)C)C(=O)N[C@H](CC(C)C)C(=O)N[C@H](CC(C)C)C(=O)N(C)[C@@H](C)C(=O)N[C@@H](CC(C)C)C(=O)N2CCC[C@@H]2C(=O)O[C@@H]1C	-6.46	–
CC(=O)N1CCC[C@H]1C(=O)N(C)[C@H](CC(C)C)C(=O)N[C@@H]1C(=O)N(C)[C@@H](CC(C)C)C(=O)N(C)[C@@H](CC(C)C)C(=O)N(C)[C@H](CC(C)C)C(=O)N(C)[C@@H](C)C(=O)N[C@H](CC(C)C)C(=O)N2CCC[C@H]2C(=O)O[C@@H]1C	-6.03	–
CC(=O)N[C@@H]1C(=O)N2CCC[C@H]2C(=O)N(C)[C@H](CC(C)C)C(=O)N[C@H](CC(C)C)C(=O)N[C@@H](CC(C)C)C(=O)N(C)[C@H](CC(C)C)C(=O)N(C)[C@@H](C)C(=O)N[C@@H](CC(C)C)C(=O)N2CCC[C@@H]2C(=O)O[C@@H]1C	-6.04	–
CC(=O)N1CCC[C@H]1C(=O)N(C)[C@H](CC(C)C)C(=O)N[C@@H]1C(=O)N[C@H](CC(C)C)C(=O)N[C@@H](CC(C)C)C(=O)N[C@H](CC(C)C)C(=O)N[C@@H](C)C(=O)N[C@H](CC(C)C)C(=O)N2CCC[C@H]2C(=O)O[C@@H]1C	-6.81	–
CC(=O)N1CCC[C@H]1C(=O)N(C)[C@H](CC(C)C)C(=O)N[C@@H]1C(=O)N(C)[C@@H](CC(C)C)C(=O)N[C@@H](CC(C)C)C(=O)N(C)[C@H](CC(C)C)C(=O)N(C)[C@H](C)C(=O)N[C@@H](CC(C)C)C(=O)N2CCC[C@@H]2C(=O)O[C@@H]1C	-5.33	-5.32

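Conditions beyond the assay type are not listed; see the original paper. The list need not hold all peptides of the study. Entries at the database's floor value (log10 P of -10) are not listed.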